Yeast UUG start-1: yeast start codon fidelity modulation | S. cerevisiae UUG-firefly luciferase reporter, luminescence/redox ratio | activity score, % at 18.7 µM | 0.13% of 350,000 active | AID 602363;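 active means replicate mean at a twofold rise or more, about +100% in these data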;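 further: firefly luciferase made from a UUG start codon reports start codon fidelity; reporter light over untreated wells divided by growth signal over untreated wells; some hits fall short of that in this replicate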
CAL PDZ FP-1: CAL PDZ peptide-binding inhibitors, primary screen, biochemical, fluorescence polarization, Cer-tagged CAL PDZ, HTS. hit rate 0.02% among 330,000. inhibition, % at 20 µM. purified CAL PDZ, TMR-peptide fluorescence polarization, 1 h. Golgi-associated PDZ and coiled-coil motif-containing protein (Homo sapiens), Q9HD26;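 active means highest replicate inhibition of at least 40%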;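 further: plate controls were DMSO neutral control wells for no effect and unlabeled competitor peptide control wells for full effect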
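System: tagged CAL PDZ domain. Schedule: 1 h room-temperature incubation prior to read. Signal: fluorescence polarization (mP). Measure: percent inhibition from loss of millipolarization.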
Dyrk1A ADPGlo: rat Dyrk1A kinase inhibitors, primary screen, biochemical, single point, plate reader; Dual specificity tyrosine-phosphorylation-regulated kinase 1A (Rattus norvegicus), Q63470; ADP-Glo luminescence, NFATc1 peptide; inhibition, % at 12.5 µM; hit rate 0.43% among 310,000; AID 504441, 2011; in the data active means inhibition above about 50%;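 further: plate controls were vehicle with enzyme for no effect and no enzyme for full effect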
CAL PDZ FP-2: untagged CAL PDZ binding inhibitors, primary screen, biochemical, fluorescence polarization, HTS; Golgi-associated PDZ and coiled-coil motif-containing protein (Homo sapiens), Q9HD26; purified CAL PDZ, TMR-peptide fluorescence polarization, 1 h; inhibition, % at 24.9 µM; hit rate 0.92% among 300,000; AID 602252, 2012;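 active means mean inhibition of at least 30% with at least half of replicates also reaching 30%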;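 further: 0% = DMSO neutral control and 100% = excess unlabeled competitor peptide PRC23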
dFosB activator: activators of delta FosB homodimer, primary screen, biochemical, fluorescence polarization, TAMRA-CDK5 oligo, single point; purified delta FosB; percent of positive-control signal above neutral wells; activation, % at 25 µM; hit rate 0.99% among 340,000; AID 493131, 2011;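 active means mean activation above about 17%, with every replicate also reaching it, limit read from the data, passing the limit was not always enough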
CDK5 inh: inhibitors of human CDK5/p35 kinase, primary screen, biochemical, single concentration; Cyclin-dependent kinase 5 (Homo sapiens) + Cyclin-dependent kinase 5 activator 1 (Homo …; Recombinant CDK5/p35, ADP-Glo luminescence, 60 min; inhibition, % at 10 µM; hit rate 0.01% among 330,000;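 active means highest replicate inhibition of at least 50% and at least 75% of replicates reaching 50%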;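 further: plate controls were DMSO neutral control for no effect and GW8510 at 10 µM for full effect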
Yeast UUG start-2: enhancers of UUG start codon usage in yeast, dose response, S. cerevisiae, UUG firefly luciferase, cherry-pick, set 2 | shares compounds with Yeast UUG start-1 | luminescence, 4 h; 100% means double the DMSO signal | activation, % at 38 µM | 540 tested, under 10 active | AID 652061, 2013;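 active means signal increase whose fitted curve reaches an absolute level of 40 at a concentration under 10 µM; inactive means activity opposite to the expected increase, or the rest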
* marks the source's active call; other numbers are inactive results; i = inactive; · = no result given. A selection: hits, their analogues and other compounds. The true share with any hit is near 1.7%.

#	Yeast UUG start-1	CAL PDZ FP-1	Dyrk1A ADPGlo	CAL PDZ FP-2	dFosB activator	CDK5 inh	Yeast UUG start-2	SMILES
1	-0.1	·	·	·	·	·	·	C[C@@H]1CN([C@H](C)CO)C(=O)c2cc(NC(=O)CCCN(C)C)ccc2O[C@@H]1CN(C)C
2	3.9	·	·	·	·	·	·	O=C(NCc1cccc(Cl)c1)c1ccc(-n2cncn2)c2ccoc12
3	-4.7	·	·	·	·	·	·	COc1ccc(CNC(=O)c2ccc(-n3cncn3)c3ccoc23)cc1OC
4	177.4*	·	·	·	·	·	-3.4	COc1ccc(CNC(=O)c2ccc(-n3ccnc3)c3ccoc23)cc1OC
5	125.6*	·	·	·	·	·	-7.2	O=C(NCc1cccc(Cl)c1)c1ccc(-n2ccnc2)c2ccoc12
6	2.9	·	·	·	·	·	·	C[C@@H]1CN([C@@H](C)CO)C(=O)c2cccc(NC(=O)C3CCOCC3)c2O[C@H]1CN(C)C(=O)Nc1ccc(C(F)(F)F)cc1
7	548.6*	-0.1	-6.5	-1.5	-4.6	0.0	18.0	COC1(OC)C(/C=C/c2ccc(C)cc2)C(C#N)(C#N)C1(OC)OC (configuration not stated)
8	116.4*	0.4	·	1.3	-14.8	-4.8	11.7	O=C(Cc1cccc2ccccc12)NCC(=O)N1CCN(Cc2cccc(C(F)(F)F)c2)CC1
9	16.3	·	·	·	·	·	·	C[C@@H]1CCCCO[C@H](CN(C)S(=O)(=O)c2ccccc2)[C@H](C)CN([C@H](C)CO)C(=O)c2cc(NC(=O)C3CCCCC3)ccc2O1
10	4.8	0.3	-1.7	0.0	3.7	-1.8	-5.0	CC(O)(C#CCN1CCCC1)c1ccccc1 (configuration not stated)
11	·	-0.9	-2.4	-1.7	-0.2	-1.0	12.2	OC(C#CCN1CCCC1)(c1ccccc1)c1cccc(F)c1 (configuration not stated)
12	-21.6	-0.1	2.2	-1.4	-4.3	-0.6	·	CC(O)(C#CCN1CCCCC1)c1ccccc1 (configuration not stated)
13	610.4*	0.0	-5.7	-0.2	-9.7	-0.5	-14.4	O=C(Nc1ccc(Nc2ccccc2)cc1)c1ccco1
14	-6.4	-2.5	-2.5	1.2	-2.8	-0.9	·	O=C(Nc1ccc(NC(=O)c2ccco2)cc1)c1ccco1
15	-18.7	-0.9	3.2	1.1	-3.1	0.1	·	COc1ccc(N2CCN(CCC3Oc4cc([N+](=O)[O-])ccc4NC3=O)CC2)cc1 (configuration not stated)
16	-20.6	-0.3	·	-4.9	-13.1	0.5	4.6	CCN1CCN(CCC2Oc3cc([N+](=O)[O-])ccc3NC2=O)CC1 (configuration not stated)
17	-6.3	-0.8	-0.1	-1.6	-14.1	-0.1	·	O=Cc1cc([N+](=O)[O-])ccc1N1CCN(Cc2ccc3c(c2)OCO3)CC1
18	·	-2.2	7.1	-2.6	0.4	0.4	8.2	O=C1Nc2ccc([N+](=O)[O-])cc2OC1CCN1CCN(Cc2ccccc2)CC1 (configuration not stated)
19	611.4*	-0.4	2.4	7.5	-8.5	-0.2	5.7	O=C1Nc2ccc([N+](=O)[O-])cc2OC1CCN1CCN(Cc2ccc3c(c2)OCO3)CC1 (configuration not stated)
20	-10.5	·	·	·	·	·	·	COc1ccc(-c2ccc([C@@H]3[C@@H](C#N)N(C(=O)c4cccnc4)[C@H]3CO)cc2)cc1
21	9.2	·	·	·	·	·	·	C[C@H]1CCCCO[C@H](CN(C)S(=O)(=O)c2ccc(Cl)cc2)[C@@H](C)CN([C@@H](C)CO)C(=O)c2cc(NC(=O)Nc3cccc4ccccc34)ccc2O1
22	14.9	·	·	·	·	·	·	C[C@H]1CN([C@@H](C)CO)S(=O)(=O)c2ccc(-c3ccc(F)cc3)cc2O[C@H]1CN(C)CC1CC1
23	-1.3	·	·	·	·	·	·	CO[C@@H]1CN(C)C(=O)c2ccc(NC(=O)c3nc4ccccc4s3)cc2OC[C@@H](C)N(Cc2ccncc2)C[C@@H]1C
24	133.8*	·	·	·	·	·	i	CCCC(=O)Nc1ccc2c(c1)C(=O)N(C)C[C@@H](OC)[C@H](C)CN(S(=O)(=O)c1cn(C)cn1)[C@@H](C)CO2
25	147.1*	·	·	·	·	·	i	CO[C@@H]1CN(C)C(=O)c2ccc(NC(=O)C3CCOCC3)cc2OC[C@@H](C)N(C(C)=O)C[C@H]1C
26	172.9*	·	·	·	·	·	i	CO[C@H]1CN(C)C(=O)c2ccc(NC(=O)c3nc4ccccc4s3)cc2OC[C@H](C)N(Cc2ccncc2)C[C@H]1C
27	-12.4	·	·	·	·	·	·	CO[C@@H]1CN(C)C(=O)c2ccc(NC(=O)Nc3c(C)noc3C)cc2OC[C@H](C)N(C)C[C@H]1C
28	69.2*	·	·	·	·	·	i	CO[C@@H]1CN(C)C(=O)c2ccc(NC(=O)Nc3c(C)noc3C)cc2OC[C@H](C)N(C)C[C@@H]1C
29	-4.4	·	·	·	·	·	·	COc1ccc(CN(C)C[C@@H]2Oc3c(NS(=O)(=O)c4ccc(F)cc4)cccc3C(=O)N([C@@H](C)CO)C[C@H]2C)cc1
30	148.4*	·	·	·	·	·	i	COc1ccc(-c2cn(CC(=O)N3CCN(C)CC3)nn2)cc1OC
31	1.5	0.4	3.5	-1.7	0.6	-1.1	·	COc1ccc(-c2nc(CSCC(=O)N3CCN(C)CC3)c(C)o2)cc1OC
32	7.6	·	·	·	·	·	·	O=C(NCC[C@H]1CC[C@H](NS(=O)(=O)Cc2ccccc2)[C@@H](CO)O1)C1CCCC1

Numbers 28 to 32 of the list above:
#	Yeast UUG start-1	CAL PDZ FP-1	Dyrk1A ADPGlo	CAL PDZ FP-2	dFosB activator	CDK5 inh	Yeast UUG start-2	SMILES
28	69.2*	·	·	·	·	·	i	CO[C@@H]1CN(C)C(=O)c2ccc(NC(=O)Nc3c(C)noc3C)cc2OC[C@H](C)N(C)C[C@@H]1C
29	-4.4	·	·	·	·	·	·	COc1ccc(CN(C)C[C@@H]2Oc3c(NS(=O)(=O)c4ccc(F)cc4)cccc3C(=O)N([C@@H](C)CO)C[C@H]2C)cc1
30	148.4*	·	·	·	·	·	i	COc1ccc(-c2cn(CC(=O)N3CCN(C)CC3)nn2)cc1OC
31	1.5	0.4	3.5	-1.7	0.6	-1.1	·	COc1ccc(-c2nc(CSCC(=O)N3CCN(C)CC3)c(C)o2)cc1OC
32	7.6	·	·	·	·	·	·	O=C(NCC[C@H]1CC[C@H](NS(=O)(=O)Cc2ccccc2)[C@@H](CO)O1)C1CCCC1

Next part
#	Yeast UUG start-1	CAL PDZ FP-1	Dyrk1A ADPGlo	CAL PDZ FP-2	dFosB activator	CDK5 inh	Yeast UUG start-2	SMILES
33	-9.3	·	·	·	·	·	·	C[C@@H]1CN([C@@H](C)CO)C(=O)c2cc(NC(=O)Nc3cccc4ccccc34)ccc2O[C@@H](C)CCCCO[C@@H]1CN(C)S(=O)(=O)c1ccc(F)cc1
34	15.7	·	·	·	·	·	·	C[C@@H]1CCCCO[C@H](CN(C)Cc2ccc(C(=O)O)cc2)[C@@H](C)CN([C@@H](C)CO)C(=O)c2cc(NS(=O)(=O)c3cccs3)ccc2O1
35	-3.0	·	·	·	·	·	·	O=C(C[C@H]1C[C@@H]2c3cc(NC(=O)c4ccc5c(c4)OCO5)ccc3O[C@@H]2[C@@H](CO)O1)NCc1ccc(Cl)cc1
36	-6.7	·	·	·	·	·	·	CCCNC(=O)C[C@H]1CC[C@@H]2[C@H](COc3ccc(NC(=O)NC(C)C)cc3C(=O)N2C)O1
37	-34.6	-0.2	-4.0	-2.4	-8.7	1.5	·	Cc1c(Cl)cccc1N1C(=O)CC(NNC(=O)c2cccnc2)C1=O (configuration not stated)
38	646.5*	-0.4	-0.1	10.5	-6.2	0.8	-7.5	Cc1c(Cl)cccc1N1C(=O)CC(NNC(=O)c2cccs2)C1=O (configuration not stated)
39	-4.5	-0.8	5.6	-0.8	-12.8	-0.1	9.8	O=C(COC(=O)c1cc2ccccc2o1)c1ccccc1

Compound activity deposited in PubChem BioAssay by Broad Institute.
